Source: US8927504B2, “Combined use of dipeptidyl peptidase 4 inhibitor and sweetener” (Mitsubishi Tanabe Pharma Corporation, priority 2007, dated 2015)

Test system: active GLP-1 in plasma
Assay: GLP-1 secretion-stimulating action by combined use of DPP4 inhibitor and sweetener (3), Example 5
Assay type: in vivo, mouse
Settings: C57BL/6J mice, mean ± SEM, n = 5
Protocol: Purified water was administered orally (10 mL/kg) as a control.
D-mannitol (Wako Pure Chemical Industries, Ltd.) at 3 g/kg, melibiose (Wako Pure Chemical Industries, Ltd.) at 6 g/kg or acesulfame K (Wako Pure Chemical Industries, Ltd.) at 3 g/kg was used as sweetener and administered orally (10 mL/kg). Purified water was administered orally (10 mL/kg) as a control.

With Cn1c(=O)cc(N2CCC[C@@H](N)C2)n(Cc2ccccc2C#N)c1=O [Alogliptin, 6-[(3R)-3-aminopiperidin-1-yl-1-(2-cyanobenzyl)-3-methylpyrimidin-2,4(1H,3H)-dione], reference compound] the “Increase in AUC of Plasma active GLP-1” value (DPP4 inhibitor 1 mg/kg orally combined with D-mannitol 3 g/kg orally) was 136 ± 7 pM·h and the “Increase in AUC of Plasma active GLP-1” value (DPP4 inhibitor 1 mg/kg orally combined with melibiose 6 g/kg orally) was 172 ± 10 pM·h.
With N[C@@H](CC(=O)N1CCn2c(nnc2C(F)(F)F)C1)Cc1cc(F)c(F)cc1F [Sitagliptin, (3R)-3-amino-1-[9-(trifluoromethyl)-1,4,7,8-tetraazabicyclo[4.3.0]nona-6,8-dien-4-yl]-4-(2,4,5-trifluorophenyl)butan-1-one, reference compound] the “Increase in AUC of Plasma active GLP-1” value (DPP4 inhibitor 10 mg/kg orally alone (purified water instead of sweetener)) was 79 ± 1 pM·h, the “Increase in AUC of Plasma active GLP-1” value (DPP4 inhibitor 10 mg/kg orally combined with D-mannitol 3 g/kg orally) was 166 ± 9 pM·h and the “Increase in AUC of Plasma active GLP-1” value (DPP4 inhibitor 10 mg/kg orally combined with acesulfame K 3 g/kg orally) was 148 ± 13 pM·h. The “Increase in AUC of Plasma active GLP-1” value (DPP4 inhibitor 10 mg/kg orally combined with melibiose 6 g/kg orally) was 218 ± 18 pM·h.
